{"source": "patent US10517862B2", "about": "“Fused heterocyclic compound derivative and application thereof” (NHWA PHARMA. CORPORATION, priority 2015, dated 2019)", "test_system": "mice of Kunming breed", "details": "mouse, in vivo"}
{"smiles": "Cc1nc2n(c(=O)c1CCN1CCC(c3noc4cc(F)ccc34)CC1)CCCC2", "note": "[risperidone]", "values": [{"measurement": "EPS at effective dosage (in words)", "value": "did not cause EPS at effective dosage"}]}
